This passage reports fold change (FC) results from ChEMBL document CHEMBL4411326 (J Med Chem, 2019).

Chains of the proteins cited; added tags and fusions are not shown.
UniProt Q05941, whole entry: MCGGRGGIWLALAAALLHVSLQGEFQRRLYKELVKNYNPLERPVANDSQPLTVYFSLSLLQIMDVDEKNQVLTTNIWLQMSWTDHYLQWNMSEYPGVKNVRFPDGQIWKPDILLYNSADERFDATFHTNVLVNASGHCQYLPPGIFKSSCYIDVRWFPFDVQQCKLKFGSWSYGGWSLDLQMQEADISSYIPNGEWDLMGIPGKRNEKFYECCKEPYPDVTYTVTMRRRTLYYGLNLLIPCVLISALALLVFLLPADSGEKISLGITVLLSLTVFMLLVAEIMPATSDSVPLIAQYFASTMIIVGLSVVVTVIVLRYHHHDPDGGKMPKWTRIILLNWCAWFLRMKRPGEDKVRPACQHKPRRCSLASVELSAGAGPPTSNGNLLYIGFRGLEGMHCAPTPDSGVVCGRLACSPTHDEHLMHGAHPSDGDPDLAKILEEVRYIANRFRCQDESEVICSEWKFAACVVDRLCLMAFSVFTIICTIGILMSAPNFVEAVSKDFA

The experiment concerns the target Neuronal acetylcholine receptor subunit alpha-7 (Rattus norvegicus) (UniProt Q05941). As to the kind of experiment: Agonist activity at rat alpha7 nAChR expressed in Xenopus laevis oocytes assessed as increase in intracellular Ca2+ levels at 0.025 to 250 uM by calcium flux assay relative to ACh. It is filed as cell-based.

Regarding `N[C@@H]1[C@@H]2CC[C@@H](C2)[C@H]1c1ccc(Cl)nc1`, the fold change (FC) was 3.

Regarding `N[C@@H]1[C@@H]2CC[C@@H](C2)[C@H]1c1cccnc1`, the fold change (FC) was 3.
